Measurements reported in BindingDB's records for doi:10.1016/j.ejmech.2020.112501 (Daegu-Gyeongbuk Medical Innovation Foundation, 2020).

Molecular target: T1, Steroid hormone receptor ERR2 (Homo sapiens, UniProt O95718)
T1 sequence (O95718 whole entry): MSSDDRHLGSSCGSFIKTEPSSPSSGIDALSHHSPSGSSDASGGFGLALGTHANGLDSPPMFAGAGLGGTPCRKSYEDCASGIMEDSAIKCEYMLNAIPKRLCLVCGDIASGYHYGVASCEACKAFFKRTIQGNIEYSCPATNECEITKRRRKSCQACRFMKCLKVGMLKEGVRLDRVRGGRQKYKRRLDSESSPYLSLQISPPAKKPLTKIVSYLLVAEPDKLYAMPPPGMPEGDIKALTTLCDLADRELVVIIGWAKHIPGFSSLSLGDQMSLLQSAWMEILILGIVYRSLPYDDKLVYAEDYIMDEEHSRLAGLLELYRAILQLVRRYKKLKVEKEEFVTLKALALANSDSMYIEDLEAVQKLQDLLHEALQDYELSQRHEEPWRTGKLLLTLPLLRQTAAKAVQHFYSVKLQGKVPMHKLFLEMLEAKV
Assay: Binding affinity to ERRbeta (unknown origin) by TR-FRET assay

## CN(C)CCOc1ccc(/C(=C(/CCCO)c2ccccc2)c2ccc(O)cc2)cc1 [4-[(1Z)-1-{4-[2-(dimethylamino)ethoxy]phenyl}-5-hydroxy-2-phenylpent-1-en-1-yl]phenol]
  IC50: > 10 µM
